# Reference: patent publication US7326684B2, “Peptides for enhancing resistance to microbial infections” (priority 2002, dated 2008)
# Experiment: Toxicity by intraperitoneal injection to mice
# Details: mice (16-18 g)
structure (smiles),measurement,value
CC(C)C[C@H](NC(=O)[C@H](CS)NC(=O)[C@@H](NC(=O)[C@H](CC(C)C)NC(=O)[C@@H](N)CO)[C@@H](C)O)C(=O)N[C@H](C(=O)N[C@@H](CCCCN)C(=O)NCC(=O)N[C@@H](Cc1ccccc1)C(=O)N[C@@H](Cc1ccc(O)cc1)C(=O)O)C(C)C [immunorphin],LD50,2500 mg/kg
